Assay: THC degradation on heating of cannabis oil films (gas-liquid chromatography)
Conditions: dry films with 14 mg cannabis oil, 1.5 hours at 100° C.

Which “degradation of THC on heating” value does the source give for `CC(C)(C)c1cc(O)ccc1O` [TBHQ, tert-butylhydroquinone] here?
Its value is “prevented”.
